# Measurements published in PubChem BioAssay (NCI).
#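 A five-concentration, 48-hour dose response in 96-well plates underlies each endpoint, interpolated linearly between surrounding concentrations. Abbreviation: GI50, concentration required for 50% inhibition of growth. TGI marks complete inhibition of growth.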
# Experiments:
# Assay in all cases: DTP human tumour cell line panel, 48 h
# [1] = tested on: CCRF-CEM leukemia
# [2] = tested on: A498 renal
# [3] = tested on: SW-620 colon
# [4] = tested on: SK-MEL-2 melanoma
# [5] = tested on: NCI-H226 lung
# [6] = tested on: PC-3 prostate
# [7] = tested on: OVCAR-4 ovarian
# [8] = tested on: SK-MEL-28 melanoma
# [9] = tested on: 786-0 renal
# [10] = tested on: NCI-H460 lung
# [11] = tested on: SF-268 CNS
# [12] = tested on: A549 NSCLC
# [13] = tested on: HOP-92 NSCLC
# [14] = tested on: K-562 leukemia
# [15] = tested on: U251 CNS
# [16] = tested on: KM12 colon
# [17] = tested on: IGROV1 ovarian
# [18] = tested on: UACC-62 melanoma
# [19] = tested on: MOLT-4 leukemia
# [20] = tested on: UACC-257 melanoma
# [21] = tested on: MALME-3M melanoma
# [22] = tested on: HCT-116 colon
# [23] = tested on: HS 578T breast
# [24] = tested on: NCI-H322M lung
# [25] = tested on: MDA-MB-231 breast
# [26] = tested on: NCI/ADR-RES ovarian
# [27] = tested on: OVCAR-8 ovarian
# [28] = tested on: DU-145 prostate
# [29] = tested on: HCC-2998 colon
# [30] = tested on: RPMI-8226 leukemia
# [31] = tested on: NCI-H522 lung
# [32] = tested on: SK-OV-3 ovarian
# [33] = tested on: SN12C renal
# [34] = tested on: MDA-N
# [35] = tested on: OVCAR-5 ovarian
# [36] = tested on: SR leukemia
# [37] = tested on: SK-MEL-5 melanoma
# [38] = tested on: LOX IMVI melanoma
# [39] = tested on: CAKI-1 renal
# [40] = tested on: HCT-15 colon
# [41] = tested on: ACHN renal
# [42] = tested on: NCI-H23 lung
# [43] = tested on: MCF7 breast
# [44] = tested on: HOP-62 NSCLC
# [45] = tested on: M14 melanoma
# [46] = tested on: SNB-75 CNS
# [47] = tested on: BT-549 breast
# [48] = tested on: EKVX NSCLC
# [49] = tested on: SF-295 CNS
# [50] = tested on: SNB-19 CNS
# [51] = tested on: COLO 205 colon
# [52] = tested on: HT29 colon
# [53] = tested on: MDA-MB-435
# [54] = tested on: HL-60(TB) leukemia
# [55] = tested on: TK-10 renal
# [56] = tested on: RXF 393 renal
# [57] = tested on: T-47D breast
# [58] = tested on: UO-31 renal
smiles,measurement,setting,value
Nc1nonc1-c1no[n+]([O-])c1-c1nonc1N,GI50,[1],1.71 µM
same,TGI,[1],8.04 µM
same,GI50,[2],25.1 µM
same,TGI,[2],73.4 µM
same,GI50,[3],11.8 µM
same,TGI,[3],29.8 µM
same,GI50,[4],13.4 µM
same,TGI,[4],29.4 µM
same,GI50,[5],16.3 µM
same,TGI,[5],35.5 µM
same,GI50,[6],14 µM
same,TGI,[6],28.5 µM
same,GI50,[7],10.7 µM
same,TGI,[7],31.7 µM
same,GI50,[8],14.7 µM
same,TGI,[8],31.3 µM
same,GI50,[9],33.6 µM
same,TGI,[9],> 100 µM
same,GI50,[10],13.2 µM
same,TGI,[10],29.5 µM
same,GI50,[11],18.5 µM
same,TGI,[11],48.2 µM
same,GI50,[12],27.8 µM
same,TGI,[12],72.5 µM
same,GI50,[13],11.2 µM
same,TGI,[13],52.3 µM
same,GI50,[14],4.52 µM
same,TGI,[14],28.2 µM
same,GI50,[15],18.2 µM
same,TGI,[15],47.9 µM
same,GI50,[16],14.5 µM
same,TGI,[16],30.2 µM
same,GI50,[17],10.9 µM
same,TGI,[17],24.4 µM
same,GI50,[18],10.8 µM
same,TGI,[18],15.7 µM
same,GI50,[19],5.4 µM
same,TGI,[19],> 100 µM
same,GI50,[20],15.2 µM
same,TGI,[20],38.7 µM
same,GI50,[21],4.88 µM
same,TGI,[21],20.4 µM
same,GI50,[22],12.5 µM
same,TGI,[22],59.6 µM
same,GI50,[23],32.3 µM
same,TGI,[23],> 100 µM
same,GI50,[24],18.6 µM
same,TGI,[24],44.6 µM
same,GI50,[25],36 µM
same,TGI,[25],61.6 µM
same,GI50,[26],26.4 µM
same,TGI,[26],97.9 µM
same,GI50,[27],14.4 µM
same,TGI,[27],63.4 µM
same,GI50,[28],17.5 µM
same,TGI,[28],36.2 µM
same,GI50,[29],12.4 µM
same,TGI,[29],26 µM
same,GI50,[30],25.6 µM
same,TGI,[30],90 µM
same,GI50,[31],4.52 µM
same,TGI,[31],17.4 µM
same,GI50,[32],17.6 µM
same,TGI,[32],32.1 µM
same,GI50,[33],14.5 µM
same,TGI,[33],25.9 µM
same,GI50,[34],17.1 µM
same,TGI,[34],> 100 µM
same,GI50,[35],19.2 µM
same,TGI,[35],49.7 µM
same,GI50,[36],9.34 µM
same,TGI,[36],> 100 µM
same,GI50,[37],12 µM
same,TGI,[37],28.9 µM
same,GI50,[38],10.8 µM
same,TGI,[38],44.9 µM
same,GI50,[39],15 µM
same,TGI,[39],40.2 µM
same,GI50,[40],10.9 µM
same,TGI,[40],35.1 µM
same,GI50,[41],16.4 µM
same,TGI,[41],44.1 µM
same,GI50,[42],11.5 µM
same,TGI,[42],33.9 µM
same,GI50,[43],13.5 µM
same,TGI,[43],48.8 µM
same,GI50,[44],20.3 µM
same,TGI,[44],44.6 µM
same,GI50,[45],10.4 µM
same,TGI,[45],32.8 µM
same,GI50,[46],14.5 µM
same,TGI,[46],28.9 µM
same,GI50,[47],30.8 µM
same,TGI,[47],73.4 µM
same,GI50,[48],14.1 µM
same,TGI,[48],30.6 µM
same,GI50,[49],16.6 µM
same,TGI,[49],33 µM
same,GI50,[50],22.5 µM
same,TGI,[50],76.4 µM
same,GI50,[51],8.5 µM
same,TGI,[51],28.5 µM
same,GI50,[52],10.9 µM
same,TGI,[52],27.6 µM
same,GI50,[53],7.8 µM
same,TGI,[53],33.4 µM
same,GI50,[54],2.22 µM
same,TGI,[54],6.08 µM
same,GI50,[55],27 µM
same,TGI,[55],70.3 µM
same,GI50,[56],16.7 µM
same,TGI,[56],37.2 µM
same,GI50,[57],21.5 µM
same,TGI,[57],62.7 µM
same,GI50,[58],15.3 µM
same,TGI,[58],31.2 µM
